Results as given in publication PMC5085761 (International Journal of Molecular Sciences, 2016).

System: LLC-PK1 monolayers
Assay: Apical-to-basal transport through LLC-PK1 monolayers
Format: in vitro ADME, pig
Details: 10 µM tracer, at 120 min
Experimental: The LLC-PK1 cell line was purchased from DS Pharma Biomedical (Osaka, Japan). Cells were maintained in Dulbecco’s modified Eagle’s medium (DMEM; Life Technologies Japan, Tokyo, Japan) supplemented with 10% (v/v) fetal bovine serum (American Type Culture Collection, Manassas, VA, USA) and antibiotics (100 U/mL penicillin and 100 μg/mL streptomycin (Life Technologies Japan)). Cells were cultured at 37 °C under an atmosphere containing 5% CO2 before the start of the experiments.
Cells were seeded at a density of 1.5 × 10^6 cells/0.25 mL on the membrane of cell culture inserts fitting 24-well plates (upper compartment, apical side; Becton Dickinson, Franklin Lakes, NJ, USA). Flat-bottom 24-well tissue culture plates (Becton Dickinson) containing 0.95 mL of culture medium per well were used as the basolateral side (bottom compartment).
LLC-PK1 monolayer formation was monitored by the measurement of TER using an EVOM-2 and Endohm24 (World Precision Instruments, Inc., Sarasota, FL, USA) according to the manufacturer’s protocol. […] [^3H]Mannitol transport was measured as described in Section 4.3 for the validation of tight junction formation because mannitol passes through the cell monolayers via the paracellular route. […]
The apical-to-basal permeability was measured by sampling an aliquot of the buffer from the upper and bottom compartment at the indicated times. […]

For L-[^14C]alanine, the “mean penetration amount (apical-to-basal transport)” value was 85.5 pmol and the “mean residual radioactivity in the cells” value was 15.2 pmol.
